# Measurements from PubChem BioAssay (Tox21).
# Where “and” joins values, the source holds several entries; their conditions need not be identical. Identical values can stand only once. Most of the hits are listed elsewhere, so they are rarer here than in the full data. Inconclusive results are not listed. Where a structure was tested more than once in an assay, its records may differ in their call. Calls of active or inactive are those of the source. Calls come from the whole dose curve; as a rule, active = well fitted curve in the direction sought with a large enough effect in the repeat runs; inconclusive = weak or mixed curves; inactive = no such curve, though single readings can be large; an effect the other way counts as inactive or inconclusive.
# Target: Nuclear receptor subfamily 1 group I member 2 (Homo sapiens) (UniProt O75469)
# Assay: Human pregnane X receptor (PXR) small molecule agonists, qHTS assay (AID 1346982); note: nearly all actives have a fitted effect of over 35% in size
# Settings: PXR-Luc HepG2, CYP3A4 luciferase reporter, 24 h; series mostly up to 92.4 µM; activation: at the top concentration
# Outline: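 Luciferase signal from ONE-Glo (30 min, room temperature) measured activation of hPXR-driven CYP3A4 reporter expression in PXR-Luc HepG2 cells treated with compounds for 24 hr at 37 C.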
# % is set by controls: 0 for no effect and ±100 for the full control effect; potency is the fitted concentration of half-maximal effect.
Structure (SMILES),activation,Potency
O=[N+]([O-])[O-].[Tl+],inactive: -15.2%,
CC(=O)[O-].[Tl+],inactive: -14.8%,
O=[N+]([O-])O.O=[N+]([O-])O.[Cd],,active: 433 nM
CC(=O)[O-].CC(=O)[O-].O.O.[Cd+2],,active: 120 nM
CC(=O)[O-].CC(=O)[O-].CC(=O)[O-].[Cr+3],inactive: 18.3%,
CC(=O)[O-].CC(=O)[O-].O.O.[Zn+2],inactive: 4.11%,
CC(=O)O,,inactive
CC(=O)O.CC(=O)O.CC(=O)O.CC(=O)O.CC(=O)O.CC(=O)O.CC(=O)O.O.O.[Cr].[Cr].[Cr],inactive: 5.08%,
C=CCN1CC[C@]23CCCC[C@H]2[C@H]1Cc1ccc(O)cc13,inactive: 6.31% [at 42.5 µM],
O=[N+]([O-])O,,inactive
Oc1ccc2c3c1O[C@H]1[C@@H](O)C=C[C@H]4[C@@H](C2)NCC[C@@]341,inactive: -1.9%,
NC(=O)CN1CCCC1=O,,inactive
COC(=O)[C@@H](N)CCCN/C(N)=N/[N+](=O)[O-],inactive: -4.12% [at 42.5 µM],
CC(=O)[O-].CC(=O)[O-].O.O.O.[Pb+2],inactive: 2.11%,
COc1ccc2c3c1O[C@H]1[C@H](O)CC[C@H]4[C@@H](C2)N(C)CC[C@@]341,inactive: -25%,
COc1cc(-c2ccc(N)c(OC)c2)ccc1N,,active: 61.1 µM [middle of 4 runs]
CC(=O)[O-].CC(=O)[O-].CC(=O)[O-].[Sb+3],inactive: 1.64% [at 3.27 µM],
CC(=O)[O-].CC(=O)[O-].[Hg+2],,active: 2430 nM
CC1(C)[C@H](C(=O)O[C@H](C#N)c2cccc(Oc3ccccc3)c2)[C@@H]1C=C(Br)Br,,active: 8.99 µM and active: 4.86 µM
N#CS,,inactive
CC(NC(C)(C)C)C(=O)c1cccc(Cl)c1 (stereo unspecified),,inactive
C#C[C@]1(O)CC[C@H]2[C@@H]3CCC4=CC(=O)CC[C@]4(C)[C@H]3CC[C@@]21C,,inactive
Oc1cccc2cccnc12,,active: 1.3 µM and active: 770 nM and inactive
O=C(O)CC(O)(CC(=O)O)C(=O)O,,inactive
CC(C)N(CCC(C(N)=O)(c1ccccc1)c1ccccn1)C(C)C (stereo unspecified),inactive: 19.5% [at 42.5 µM],
CN1CCN(C(=O)O[C@H]2c3nccnc3C(=O)N2c2ccc(Cl)cn2)CC1,inactive: -2.62% [at 42.5 µM],
N[C@@H](Cc1ccc(N(CCCl)CCCl)cc1)C(=O)O,inactive: 19.1% [at 42.5 µM],

# Target: Nuclear receptor subfamily 1 group I member 2 (Homo sapiens) (UniProt O75469)
# Assay: CYP3A4 induction through human pregnane X receptor (PXR) by small molecules, qHTS assay (AID 1346984); note: nearly all actives have a fitted effect of over 40% in size
# Settings: DPX-2 HepG2 PXR, CYP3A4-luciferin luminescence, 24 h; series mostly up to 46.1 µM; activation: at the top concentration
# Outline: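 Luminescence readout: luciferase signal after One-Glo (30 min, room temperature), following 3 h at 37C with 3uM final Luciferin-IPA P450 substrate. Cells were DPX-2 (HepG2, PXR/CYP3A4-luc co-transfected) dosed for 24 h.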
Structure (SMILES),activation,Potency
C=CCN1CC[C@]23CCCC[C@H]2[C@H]1Cc1ccc(O)cc13,inactive: -9.28%,
COC(=O)[C@@H](N)CCCN/C(N)=N/[N+](=O)[O-],inactive: -3.45%,
CC(NC(C)(C)C)C(=O)c1cccc(Cl)c1 (stereo unspecified),inactive: 5.43%,
Oc1cccc2cccnc12,,active: 4470 nM

# Target: Nuclear receptor subfamily 1 group I member 2 (Homo sapiens) (UniProt O75469)
# Assay: Human pregnane X receptor (PXR) activation by small molecules, qHTS assay (AID 1346985); note: nearly all actives have a fitted effect of over 40% in size
# Settings: DPX-2 HepG2 CYP3A4-luciferase, 24 h; series mostly up to 38.3 µM; activation: at the top concentration
Structure (SMILES),activation,Potency
C=CCN1CC[C@]23CCCC[C@H]2[C@H]1Cc1ccc(O)cc13,inactive: -9.95%,
COC(=O)[C@@H](N)CCCN/C(N)=N/[N+](=O)[O-],inactive: -5.18%,
CC(NC(C)(C)C)C(=O)c1cccc(Cl)c1 (stereo unspecified),inactive: -6.68%,
Oc1cccc2cccnc12,inactive: 5.08%,
N[C@@H](Cc1ccc(N(CCCl)CCCl)cc1)C(=O)O,,active: 25100 nM
